Literature values as cited in publication PMC9181795, “Ibuprofen Favors Binding of Amyloid-β Peptide to Its Depot, Serum Albumin” (International Journal of Molecular Sciences, 2022).

How the values were obtained:
murine brain = conditions: intracerebroventricular; ref [19]; cited from earlier work
Aβ = conditions: cited from earlier work
Text: Multimerization of monomeric Aβ leads to the formation of soluble toxic oligomers, protofibrils, and insoluble mature fibrils, which assemble into amyloid plaques. Therefore, the Aβ therapeutics in clinical trials pursue avoidance of Aβ aggregation, aside from reduction of Aβ production and enhancement of Aβ clearance.

AD = test system: AD; set-up: method as in PMID 32715623, PMID 30859122, PMID 25023458; conditions: plasma exchange, replacement of endogenous albumin with therapeutic HSA; ref [16],[17],[18]; cited from earlier work

For “HSA: defatted human serum albumin extracted from blood under non-denaturing conditions (Merck #126654)”, the “result of direct delivery of exogenous HSA into brain” value (murine brain) is listed as “positive results”, the “contribution to prevention of Aβ polymerization via Aβ binding” value (Aβ; plasma and CSF proteins, ref [7]) is listed as “over 60%” and the “share of total Aβ in plasma bound by HSA” value (Aβ; plasma, ref [9]) is listed as “about 89%”. The “cognitive and functional decline in AD” value (AD) was “slowdown of cognitive and functional decline in AD”.
